Experimental data as given in PubChem BioAssay AID775 (SRMLSC, 2007).
The entries are a selection whose mix differs from that of the whole data set. Activity calls are given as the source filed them.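 How the source made its calls: active means inhibition above a set limit, placed 3 SD over the median of all compounds (cut at about 26% in these data); inactive means the rest.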

Test: rescue of nicotinamide-shortened yeast lifespan – S. cerevisiae, OD615, primary screen (AID 775);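 further: 0% = nicotinamide-treated wells and 100% = cells grown without nicotinamide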
Details: S. cerevisiae growth with nicotinamide, at 10 µM, hits give high values, deaD strain in restrictive glucose medium
Method in brief: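 Measured by: optical density (absorbance) at 615 nm; System: modified budding yeast, DeaD strain; Medium: restrictive CSMM-D dextrose medium; Timing: 4 h preincubation then 48 h treatment at 30 °C.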

Compound	inhibition of the nicotinamide effect
CCOc1ncccc1C(=O)NCC1(N2CCOCC2)CCCCC1	inactive: -12%
CCC(CO)(C(=O)OC1CN2CCC1CC2)c1ccccc1 (configuration not stated)	inactive: 5.91%
CCN1CCC(Nc2cccc(F)c2)CC1	inactive: 4.99%
c1ccc(CN2CCC(Nc3ccccc3)CC2)cc1	inactive: -7.88%
O=C(OC1CN2CCC1CC2)C1c2ccccc2C=Cc2ccccc21 (configuration not stated)	inactive: 5.62%
N/C(=N\O)c1c(N)no[n+]1[O-]	inactive: -8.47%
N#CC1(Nc2ccccc2)CCN(CCc2ccccc2)CC1	inactive: 0.92%
CN1CCN(CCOC(=O)C(O)(c2ccccc2)c2ccccc2)CC1	inactive: 2.23%
O=C(NCC1(N2CCOCC2)CCCCC1)c1cc(=O)[nH]c2ccccc12	inactive: -3.66%
COc1ccc(NC2CCN(CCc3ccccc3)CC2)c(OC)c1	inactive: -0.84%
O=C(OC1CN2CCC1CC2)C1c2ccccc2Oc2ccccc21 (configuration not stated)	inactive: -24.2%
O=C(NCC1(N2CCOCC2)CCCCC1)c1cc2ccccc2o1	inactive: -6.6%
